Assay results as given in patent publication US20070105759A1 (priority 2003, published 2007).

Sequences of proteins named here, by UniProt entry; tags and fusion partners are left off.
UniProt P32245, whole entry: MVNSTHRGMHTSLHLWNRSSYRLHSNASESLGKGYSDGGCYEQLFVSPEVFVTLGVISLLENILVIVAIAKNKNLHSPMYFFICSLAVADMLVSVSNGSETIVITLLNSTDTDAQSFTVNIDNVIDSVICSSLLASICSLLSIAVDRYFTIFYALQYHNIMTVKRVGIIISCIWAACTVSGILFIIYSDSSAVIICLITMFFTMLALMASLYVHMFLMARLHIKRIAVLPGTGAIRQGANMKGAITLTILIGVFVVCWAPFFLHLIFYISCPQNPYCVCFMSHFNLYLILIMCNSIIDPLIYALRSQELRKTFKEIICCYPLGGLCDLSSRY

biological target: MC4 (Homo sapiens, UniProt P32245); conditions: read-out: MC4 Ki

Going from CC(=O)N[C@@H](Cc1ccc(O)cc1)C(=O)N[C@@H](CCCNC(=N)N)CC(=O)N[C@H]1CSSC[C@@H](C(N)=O)NC(=O)[C@H](Cc2c[nH]c3ccccc23)NC(=O)[C@H](CCCNC(=N)N)NC(=O)[C@@H](Cc2ccccc2)NC(=O)[C@H](Cc2c[nH]cn2)NC(=O)[C@H](CCC(=O)O)NC1=O [Compound No. 127, Ac-Tyr-(1-β-hArg)-cyclo[Cys-Glu-His-D-Phe-Arg-Trp-Cys]-NH2] to CC(=O)N[C@@H](Cc1ccc(O)cc1)C(=O)N[C@@H](CCCNC(=N)N)C(=O)N[C@H]1CCSSC[C@@H](C(N)=O)NC(=O)[C@H](Cc2c[nH]c3ccccc23)NC(=O)[C@H](CCCNC(=N)N)NC(=O)[C@@H](Cc2ccccc2)NC(=O)[C@H](Cc2c[nH]cn2)NC(=O)[C@H](CCC(=O)O)NC1=O [Compound No. 166, Ac-Tyr-Arg-cyclo[hCys-Glu-His-D-Phe-Arg-Trp-Cys]-NH2], the Ki rises from 0.28 nM to 25.1 nM (90-fold).

Compared with CC(=O)N[C@H](CCCNC(=N)N)C(=O)N[C@H]1CSSC[C@@H](C(=O)O)NC(=O)[C@H](Cc2c[nH]c3ccccc23)NC(=O)[C@H](CCCNC(=N)N)NC(=O)[C@@H](Cc2ccccc2)NC(=O)[C@H](Cc2c[nH]cn2)NC(=O)[C@H](CCC(=O)O)NC1=O [Compound No. 53, Ac-D-Arg-cyclo[Cys-Glu-His-D-Phe-Arg-Trp-Cys]-OH], CC(=O)N[C@@H](CCCNC(=N)N)C(=O)N[C@H]1CSSC[C@@H](C(=O)O)NC(=O)[C@H](Cc2c[nH]c3ccccc23)NC(=O)[C@H](CCCNC(=N)N)NC(=O)[C@@H](Cc2ccccc2)NC(=O)[C@H](Cc2c[nH]cn2)NC(=O)[C@H](CCC(=O)O)NC1=O [Compound No. 49, Ac-Arg-cyclo[Cys-Glu-His-D-Phe-Arg-Trp-Cys]-OH] is 2.8-fold lower in Ki: 8.68 nM for the first, 3.14 nM for the second. The second binds more tightly here.

First: CC(=O)N[C@@H](Cc1ccc(O)cc1)C(=O)N[C@@H](CCCNC(=N)N)C(=O)N[C@H]1CSSC[C@@H](CO)NC(=O)[C@H](Cc2c[nH]c3ccccc23)NC(=O)[C@H](CCCNC(=N)N)NC(=O)[C@@H](Cc2ccccc2)NC(=O)[C@H](Cc2c[nH]cn2)NC(=O)[C@H](CCC(=O)O)NC1=O [Compound No. 78, Ac-Tyr-Arg-cyclo[Cys-Glu-His-D-Phe-Arg-Trp-Cys] alcohol]
Second: CC(=O)N[C@@H](Cc1ccc(O)cc1)C(=O)N[C@@H](CCCNC(=N)N)C(=O)N[C@H]1CSSC[C@@H](C(=O)NCCO)NC(=O)[C@H](Cc2c[nH]c3ccccc23)NC(=O)[C@H](CCCNC(=N)N)NC(=O)[C@@H](Cc2ccccc2)NC(=O)[C@H](Cc2c[nH]cn2)NC(=O)[C@H](CCC(=O)O)NC1=O [Compound No. 114, Ac-Tyr-Arg-cyclo[Cys-Glu-His-D-Phe-Arg-Trp-Cys]-glycinol]
The Ki of the first is 5.4-fold higher: 7.28 nM for the first, 1.35 nM for the second. The second binds more tightly here.

First: CC(=O)N[C@H]1CCSSC[C@@H](C(=O)O)NC(=O)[C@H](Cc2c[nH]c3ccccc23)NC(=O)[C@H](CCCNC(=N)N)NC(=O)[C@@H](Cc2ccccc2)NC(=O)[C@H](Cc2c[nH]cn2)NC1=O [Compound No. 138, Ac-cyclo[hCys-His-D-Phe-Arg-Trp-Cys]-OH]
Second: CC(=O)N[C@H]1CCSSC[C@@H](C(N)=O)NC(=O)[C@H](Cc2c[nH]c3ccccc23)NC(=O)[C@H](CCCNC(=N)N)NC(=O)[C@@H](Cc2ccc(Cl)cc2)NC(=O)[C@H](Cc2c[nH]cn2)NC1=O [Compound No. 140, Ac-cyclo[hCys-His-(4-Cl-D-Phe)-Arg-Trp-Cys]-NH2]
The Ki of the first is 15-fold higher: 3.08 nM for the first, 0.2 nM for the second. The second binds more tightly here.

Compared with CC(=O)N[C@@H](Cc1ccc(O)cc1)C(=O)N[C@@H](CCCNC(=N)N)C(=O)N[C@H]1CCSSC[C@@H](C(N)=O)NC(=O)[C@H](Cc2c[nH]c3ccccc23)NC(=O)[C@H](CCCNC(=N)N)NC(=O)[C@@H](Cc2ccccc2)NC(=O)[C@H](Cc2c[nH]cn2)NC1=O [Compound No. 164, Ac-Tyr-Arg-cyclo[hCys-His-D-Phe-Arg-Trp-Cys]-NH2], N=C(N)NCCC[C@H](NC(=O)[C@@H](N)Cc1ccc(O)cc1)C(=O)N[C@H]1CCSSC[C@@H](C(=O)O)NC(=O)[C@H](Cc2c[nH]c3ccccc23)NC(=O)[C@H](CCCNC(=N)N)NC(=O)[C@@H](Cc2ccccc2)NC(=O)[C@H](Cc2c[nH]cn2)NC1=O [Compound No. 163, Tyr-Arg-cyclo[hCys-His-D-Phe-Arg-Trp-Cys]-OH] is 6-fold higher in Ki: 0.38 nM for the first, 2.28 nM for the second.

Going from CC(=O)N[C@H]1CSSC[C@@H](C(N)=O)NC(=O)[C@H](Cc2c[nH]c3ccccc23)NC(=O)[C@H](CCCNC(=N)N)NC(=O)[C@@H](Cc2ccccc2)NC(=O)[C@H](Cc2c[nH]cn2)NC(=O)[C@H](CCC(N)=O)NC1=O [Compound No. 8, Ac-cyclo[Cys-Gln-His-D-Phe-Arg-Trp-Cys]-NH2] to N=C(N)NCCC[C@@H](N)C(=O)N[C@H]1CSSC[C@@H](C(N)=O)NC(=O)[C@H](Cc2c[nH]c3ccccc23)NC(=O)[C@H](CCCNC(=N)N)NC(=O)[C@@H](Cc2ccccc2)NC(=O)[C@H](Cc2c[nH]cn2)NC(=O)[C@H](CCC(=O)O)NC1=O [Compound No. 46, D-Arg-cyclo[Cys-Glu-His-D-Phe-Arg-Trp-Cys]-NH2], the Ki falls from 1.43 nM to 0.73 nM (2-fold).

Compared with CC(=O)N[C@@H](CCCNC(=N)N)C(=O)N[C@H]1CSSC[C@@H](C(N)=O)NC(=O)[C@H](Cc2c[nH]c3ccccc23)NC(=O)[C@H](CCCNC(=N)N)NC(=O)[C@@H](Cc2ccccc2)NC(=O)[C@H](Cc2cn(C)cn2)NC(=O)[C@H](CCC(=O)O)NC1=O [Compound No. 51, Ac-Arg-cyclo[Cys-Glu-(1-Me-His)-D-Phe-Arg-Trp-Cys]-NH2], CC(=O)N[C@@H](Cc1ccc(O)cc1)C(=O)N[C@@H](CCCNC(=N)N)C(=O)N[C@H]1CSSC[C@@H](C(N)=O)NC(=O)[C@H](Cc2c[nH]c3ccccc23)NC(=O)[C@H](CCCNC(=N)N)NC(=O)[C@@H](Cc2ccccc2)NC(=O)[C@H](Cc2cscn2)NC(=O)[C@H](CCC(=O)O)NC1=O [Compound No. 112, Ac-Tyr-Arg-cyclo[Cys-Glu-(β-(1,3-thiazol-4-yl)-Ala)-D-Phe-Arg-Trp-Cys]-NH2] is 14-fold higher in Ki: 6.52 nM for the first, 89 nM for the second.

Compared with N=C(N)NCCC[C@@H]1NC(=O)[C@@H](Cc2ccc(F)cc2)NC(=O)[C@H](Cc2c[nH]cn2)NC(=O)[C@@H](NC(=O)[C@@H](N)CCCNC(=N)N)CSSCC[C@@H](C(N)=O)NC(=O)[C@H](Cc2c[nH]c3ccccc23)NC1=O [Compound No. 187, Arg-cyclo[Cys-His-(4-F-D-Phe)-Arg-Trp-hCys]-NH2], Cn1cnc(C[C@H]2NC(=O)[C@@H](NC(=O)[C@@H](N)CCCNC(=N)N)CCSSC[C@@H](C(N)=O)NC(=O)[C@H](Cc3c[nH]c4ccccc34)NC(=O)[C@H](CCCNC(=N)N)NC(=O)[C@@H](Cc3ccccc3)NC2=O)c1 [Compound No. 157, Arg-cyclo[hCys-(1-Me-D-His)-D-Phe-Arg-Trp-Cys]-NH2] is 14-fold higher in Ki: 2.02 nM for the first, 28.4 nM for the second.

First: N=C(N)NCCC[C@@H]1NC(=O)[C@@H](Cc2ccccc2)NC(=O)[C@H](Cc2c[nH]cn2)NC(=O)[C@@H](NC(=O)C2CCCC2)CCSSC[C@@H](C(N)=O)NC(=O)[C@H](Cc2c[nH]c3ccccc23)NC1=O [Compound No. 143, N-cyclopentanecarbonyl-cyclo[hCys-His-D-Phe-Arg-Trp-Cys]-NH2]
Second: CC(=O)N[C@H]1CSCSC[C@@H](C(N)=O)NC(=O)[C@H](Cc2c[nH]c3ccccc23)NC(=O)[C@H](CCCNC(=N)N)NC(=O)[C@@H](Cc2ccccc2)NC(=O)[C@H](Cc2c[nH]cn2)NC1=O [Compound No. 198, Ac-cyclo(S-CH2-S)[Cys-His-D-Phe-Arg-Trp-Cys]-NH2]
The Ki of the first is 210-fold lower: 0.08 nM for the first, 16.7 nM for the second. The first binds more tightly here.

First: CC(=O)N[C@@H](Cc1ccc(O)cc1)C(=O)N[C@@H](CCCNC(=N)N)C(=O)N[C@H]1CSSC[C@@H](C(N)=O)NC(=O)[C@H](Cc2c[nH]c3ccccc23)NC(=O)[C@H](CCCNC(=N)N)NC(=O)[C@@H](Cc2ccccc2)NC(=O)[C@H](Cc2c[nH]cn2)NC(=O)[C@H](Cc2c[nH]cn2)NC1=O [Compound No. 13, Ac-Tyr-Arg-cyclo[Cys-His-His-D-Phe-Arg-Trp-Cys]-NH2]
Second: CC(=O)N[C@@H](Cc1ccc(O)cc1)C(=O)N[C@@H](CO)C(=O)N[C@H]1CSSC[C@@H](C(N)=O)NC(=O)[C@H](Cc2c[nH]c3ccccc23)NC(=O)[C@H](CCCNC(=N)N)NC(=O)[C@@H](Cc2ccccc2)NC(=O)[C@H](Cc2c[nH]cn2)NC(=O)[C@H](CCC(=O)O)NC1=O [Compound No. 129, Ac-Tyr-Ser-cyclo[Cys-Glu-His-D-Phe-Arg-Trp-Cys]-NH2]
The Ki of the first is 6.4-fold lower: 0.34 nM for the first, 2.18 nM for the second.

Going from CC(=O)N[C@@H](Cc1ccc(O)cc1)C(=O)N[C@H](C(=O)N[C@H]1CSSC[C@@H](C(N)=O)NC(=O)[C@H](Cc2c[nH]c3ccccc23)NC(=O)[C@H](CCCNC(=N)N)NC(=O)[C@@H](Cc2ccccc2)NC(=O)[C@H](Cc2c[nH]cn2)NC(=O)[C@H](CCC(=O)O)NC1=O)C(C)C [Compound No. 130, Ac-Tyr-Val-cyclo[Cys-Glu-His-D-Phe-Arg-Trp-Cys]-NH2] to CC(=O)N[C@@H](Cc1ccc(O)cc1)C(=O)N[C@@H](CCCNC(=N)N)C(=O)N[C@H]1CSSC[C@@H](C(N)=O)NC(=O)[C@H](Cc2c[nH]c3ccccc23)NC(=O)[C@H](CCCNC(=N)N)NC(=O)[C@@H](Cc2ccccc2)NC(=O)[C@H](Cc2ccco2)NC(=O)[C@H](CCC(=O)O)NC1=O [Compound No. 110, Ac-Tyr-Arg-cyclo[Cys-Glu-(β-(2-furyl)-Ala)-D-Phe-Arg-Trp-Cys]-NH2], the Ki rises from 1.98 nM to 117 nM (59-fold).

Going from CC(=O)N[C@H]1CSSC[C@@H](C(=O)N[C@@H](CCCCN)C(=O)N2CCC[C@H]2C(N)=O)NC(=O)[C@H](Cc2c[nH]c3ccccc23)NC(=O)[C@H](CCCNC(=N)N)NC(=O)[C@@H](Cc2ccccc2)NC(=O)[C@H](Cc2c[nH]cn2)NC(=O)[C@H](CCC(=O)O)NC1=O [Compound No. 35, Ac-cyclo[Cys-Glu-His-D-Phe-Arg-Trp-Cys]-Lys-Pro-NH2] to CC(=O)N[C@@H](Cc1ccc(O)cc1)C(=O)N[C@@H](CCCNC(=N)N)C(=O)N[C@H]1CSSC[C@@H](C(=O)N[C@@H](CCCCN)C(=O)N2CCC[C@H]2C(N)=O)NC(=O)[C@H](Cc2c[nH]c3ccccc23)NC(=O)[C@H](CCCNC(=N)N)NC(=O)[C@@H](Cc2ccccc2)NC(=O)[C@H](Cc2c[nH]cn2)NC(=O)[C@H](CCC(=O)O)NC1=O [Compound No. 121, Ac-Tyr-Arg-cyclo[Cys-Glu-His-D-Phe-Arg-Trp-Cys]-Lys-Pro-NH2], the Ki falls from 1.03 nM to 0.34 nM (3-fold). The second binds more tightly here.

CC(=O)N[C@@H](Cc1ccc(O)cc1)C(=O)N[C@@H](CCCNC(=N)N)C(=O)N[C@H]1CSSC[C@@H](C(=O)N[C@@H](CCC(=O)O)C(N)=O)NC(=O)[C@H](Cc2c[nH]c3ccccc23)NC(=O)[C@H](CCCNC(=N)N)NC(=O)[C@@H](Cc2ccccc2)NC(=O)[C@H](Cc2c[nH]cn2)NC(=O)[C@H](CCC(=O)O)NC1=O [Compound No. 118, Ac-Tyr-Arg-cyclo[Cys-Glu-His-D-Phe-Arg-Trp-Cys]-Glu-NH2] showed a Ki of 4.59 nM.
